The nature of the experiment: Selectivity ratio of Ki for CB2 receptor of mouse spleen to Ki for human CB1 receptor. The class given is tissue-based.

One molecule from ChEMBL document CHEMBL3232786, “Therapeutic utility of cannabinoid receptor type 2 (CB(2)) selective agonists” (J Med Chem, 2013) can be followed below.

For `CCCCC/C=C\C/C=C\C/C=C\C/C=C\CCCC(=O)N[C@H](C)CO`, the Ratio Ki was found to be 40.7.
